Like-named read-outs stand apart in the source and are kept apart here.
Columns and labels:
C57BL/6 wild-type mice [1] = conditions: mouse, in vivo
C57BL/6 wild-type mice [2] = conditions: mouse, in vivo, ip
[3] = pH 7.4
[4] = compared to previously published compounds; ref Dietis et al. 2009; Healy et al. 2013 (comparators); cited from earlier work
C57BL/6 wild-type mice [5] = conditions: mouse, in vivo, ip; remark: listed apart in the source

**Q.** What does the source list for “Dmt-c(SEtS)[DCys-Aic-DPen]-Ser(β-glucose)-NH2 [VRP26]”?
**A.** withdrawal signs precipitated by naltrexone (C57BL/6 wild-type mice [1]): no differences in the number of withdrawal signs; locomotor activity, effect of dose (C57BL/6 wild-type mice [2]): dose-dependent increases in locomotor activity on both day 1 and day 5; locomotor activity (C57BL/6 wild-type mice [2]; 10 mg/kg): increased locomotor activity (p < 0.05) on day 5 only; locomotor activity (C57BL/6 wild-type mice [2]; 32 mg/kg): increased locomotor activity on day 1 only; drug delivered from osmotic pump, of expected drug concentration [3]: > 95%; stability in osmotic pump [3]: stable under these conditions; bioavailability after peripheral administration [4]: significantly better bioavailability after peripheral administration; CPP, time spent on drug-paired side (C57BL/6 wild-type mice [5]): slightly increased time spent on the VRP26-paired side of the apparatus
